This is a selection; strong and weak results do not stand in their true shares. Active and inactive are the calls of the source. No stated cut-off is given here; in the data, active means response mostly above about 7.3% (no sharp cut-off); inactive means mostly below about 5.4%.

This experiment in a line: regulators of yeast V-ATPase proton pumping, primary screen, pHLuorin cytosolic pH fluorescence (AID 504577). Further: actives read high. Particulars: S. cerevisiae, at 10 µM, stronger effect = higher value.
In the case of `CC(C)=N/N=C(\N)N[N+](=O)[O-]`, the response is inactive: -1.89%.
As for `CN(C)C(=O)OCCc1n(C)cc[n+]1C`, the response was inactive: -2.42%.
`CC1CCN(C(=O)Oc2c(Cl)cc(Cl)c3cccnc23)CC1`: the response was inactive: 3.51%.
Under `c1cc(-c2nn[nH]n2)ccc1-c1nn[nH]n1` stands inactive: -0.88%.
Turning to `COc1ccc(C2=NCC(CBr)S2)cc1` (stereo not given), the response was inactive: 1.5%.
Under `O=[N+]([O-])c1cccc2n[nH]nc12` stands inactive: 4.36%; under `CC(=O)N1C2C3N(C(C)=O)C1C1N(C(C)=O)C(C(N1C(C)=O)N3C(C)=O)N2C(C)=O`, inactive: -0.47%; under `Cc1ccc(NP(=O)(Oc2ccccc2)Oc2ccccc2)nc1`, inactive: 4.03%.
On to `CCc1nc2c(n1)c1c(non1O)c1c2no[n+]1[O-]`, for which the response was inactive: 0.17%.
Under `O=[N+]([O-])c1cc([N+](=O)[O-])c(CCNc2ccccc2)c([N+](=O)[O-])c1` stands inactive: 0.55%.
Under `CC(C)(C)C(=O)NC(Sc1ccncn1)C(Cl)(Cl)Cl` (stereo not given) stands inactive: 6.64%.
As for `O=[N+]([O-])c1ncn(CCn2ncnc2[N+](=O)[O-])n1`, the response is inactive: 0.5%.
For `COC(=O)C1(C)COP(=O)(Nc2ccccc2)OC1` (stereo not given), the response is inactive: -1.94%.
`O=[N+]([O-])c1cccc(NC2=NCC(CBr)S2)c1` (stereo not given): the response was inactive: -4.03%.
Under `O=C(O)CNc1ccc([As](=O)(O)O)cc1` stands inactive: -2.09%.
Take `O=P1(N(CCCl)CCCl)OCCCS1` (stereo not given): the response is inactive: -1.51%.
Under `O=C(Nc1cc([As](=O)(O)O)ccc1O)c1ccccc1` stands inactive: 1.65%; under `CCN(N=Nc1nonc1N)c1nonc1N`, inactive: 3.22%.
Under `Nc1cccc2ccc([As](=O)(O)O)cc12` stands inactive: -1.13%.
With `CC(=O)Nc1ccc([As](=O)(O)O)cc1`, the response is inactive: 3.88%.
Turning to `O=C(O)c1ccccc1[As](=O)(O)O`, the response is inactive: -5.28%.
`CCCC1OP(N)(=O)OCC1CC` (stereo not given): the response is inactive: -0.36%.
With `O=P(Nc1nc2ccc(Cl)cc2s1)(c1ccccc1)c1ccccc1`, the response was inactive: -0.13%.
Under `CN(C)P(=O)(N(C)C)n1c(Nc2ccccc2)nnc1-c1ccccc1` stands inactive: 2.47%; under `Cc1cc(SC(NC(=O)c2ccc(F)cc2)C(Cl)(Cl)Cl)ncn1` (stereo not given), inactive: -1.23%; under `CCOP(=O)(Nc1ccccc1)OCC`, inactive: 0.5%.
On to `Cc1ccc(NP(=O)(Oc2ccccc2F)Oc2ccccc2F)nc1`, for which the response is inactive: -2.41%.
Under `CN(C(=O)Cc1ccc(Cl)c(Cl)c1)[C@H]1CCCC[C@@H]1N1CCCC1` stands inactive: -3.62%; under `Nc1cc(N)c2nonc2c1[N+](=O)[O-]`, inactive: 2.71%.
Turning to `CC(C)CC(=O)NC(Sc1ccc(Cl)cc1)C(Cl)(Cl)Cl` (stereo not given), the response is inactive: 3.12%.
Take `Oc1ccccc1CNc1ccccn1`: the response is inactive: -5%.
For `O=C(NC(Sc1ccncn1)C(Cl)(Cl)Cl)c1ccccc1` (stereo not given), the response is inactive: 0.16%.
For the compound `NC(=O)c1cc([N+](=O)[O-])cc([N+](=O)[O-])c1N`, the response is inactive: 1.32%.
Under `CN(C(=O)Cc1ccc(Cl)c(Cl)c1)[C@H]1CCCC[C@H]1N1CCCC1` stands inactive: 1.69%.
As for `Cc1ccc(N/C(=N/P(=O)(N2CCOCC2)N2CCOCC2)N2CCOCC2)cc1`, the response is inactive: 1.4%.
Turning to `COc1ccccc1OP(=O)(Nc1ccc(C)cn1)Oc1ccccc1OC`, the response was inactive: -2.33%.
With `Cc1ccc(OP(=O)(Nc2nccs2)Oc2ccc(C)cc2)cc1`, the response was inactive: -3.74%.
Under `CN1CCCC(OC(=O)C(c2ccccc2)c2ccccc2)C1` (stereo not given) stands inactive: 5.16%.
In the case of `Clc1ccc(Cl)c(NC2=NCC(CBr)S2)c1` (stereo not given), the response is inactive: -0.61%.
For `CC(=O)c1ccc(N2CC2c2ccncc2)cc1` (stereo not given), the response is inactive: 0.2%.
With `N#C/C(=C\c1ccc(N(CCBr)CCBr)cc1)C(N)=O`, the response is inactive: 1.39%.
Under `COC(=O)C1(C)COP(=O)(NCc2ccccc2)OC1` (stereo not given) stands inactive: 1.31%; under `Cc1ccccc1CN(C)C(=O)COC(=O)C(O)(c1ccccc1)c1ccccc1`, inactive: -1.64%; under `C[C@H]1OP(=O)(Oc2ccccc2)C[C@@H]2O[C@@H]21` (stereo not given in full), inactive: 0.23%.
On to `C[C@@H]1C=CCP(=O)(Oc2ccccc2)O1` (stereo not given in full), for which the response was inactive: 1.28%.
As to `CC(=O)Nc1ccc([As](=O)(O)O)c(O)c1`, the response is inactive: -2.21%.
As for `CC(=O)Nc1ccc(Oc2c([N+](=O)[O-])cc([N+](=O)[O-])cc2[N+](=O)[O-])cc1`, the response was inactive: -0.83%.
Turning to `O=P1(Nc2nc3ccc(Cl)cc3s2)COc2ccccc2O1` (stereo not given), the response was inactive: 3.81%.
For `CCOc1ccc(C2=NCC(CBr)S2)cc1` (stereo not given), the response was inactive: 0.11%.
Turning to `CCc1cc(O)c([N+](=O)[O-])c(C)c1[N+](=O)[O-]`, the response was inactive: 0.97%.
`CC(C)(C)C(=O)NC(Sc1ccccc1)C(Cl)(Cl)Cl` (stereo not given): the response is inactive: 0.8%.
Under `COC(=O)c1cc2c(s1)N=C(c1ccccc1)N(C)P2(=O)N1CCOCC1` (stereo not given) stands inactive: -2.66%.
`CC(=O)NC(SC(=S)N(CC(C)C)CC(C)C)C(Cl)(Cl)Cl` (stereo not given): the response was inactive: 3.07%.
`Cc1ccc(OP(=O)(Nc2ccccn2)Oc2ccc(C)cc2)cc1`: the response is inactive: -0.74%.
For the compound `O=C(OC1CN2CCC1CC2)c1ccccc1` (stereo not given), the response is inactive: -1%.
Under `CCC(=O)N1C2C3N(C(=O)CC)C1C1N(C(=O)CC)C(C(N1C(=O)CC)N3C(=O)CC)N2C(=O)CC` stands inactive: -1.47%; under `CC(NC(=O)COC(=O)C(O)(c1ccccc1)c1ccccc1)c1ccccc1` (stereo not given), inactive: -2.97%.
With `Cc1ccccc1OP(=O)(Nc1ccccn1)Oc1ccccc1C`, the response was inactive: -1.72%.
Under `O=c1c2cc([N+](=O)[O-])ccc2[nH]c2c([N+](=O)[O-])cc([N+](=O)[O-])cc12` stands inactive: 2.01%; under `CN(C)C(=O)Oc1noc2ccccc12`, inactive: 0.75%; under `CCNC(=S)/N=C(\N)N[N+](=O)[O-]`, inactive: 0.6%.
Under `O=C(NC1CCS(=O)(=O)C1)NP(=S)(Oc1ccccc1)Oc1ccccc1` (stereo not given) stands inactive: 0.91%; under `c1ccc(-c2nn[nH]n2)c(-c2nn[nH]n2)c1`, inactive: -0.42%.
Under `Cc1ccc(NP(=O)(Oc2cccc(C)c2)Oc2cccc(C)c2)nc1` stands inactive: -1.9%.
As for `O=P1(N(CCCl)CCCl)OCCC2CCCCN21` (stereo not given), the response was inactive: 2.09%.
As to `O=[N+]([O-])c1ccc(O)c(/C=N/Nc2ccc([N+](=O)[O-])cc2[N+](=O)[O-])c1`, the response was inactive: 1.36%.
With `CC(=O)NC(SC(=S)N(C)C)C(Cl)(Cl)Cl` (stereo not given), the response was inactive: -3.78%.
`O=[N+]([O-])c1ncn(CCn2cnc([N+](=O)[O-])n2)n1`: the response is inactive: -1.56%.
For the compound `O=[As](O)(c1ccccc1)c1ccc(O)cc1`, the response was inactive: 1.06%.
Under `C(Cc1nn[nH]n1)Cc1nn[nH]n1` stands inactive: 1.31%; under `Nc1ccc([As](=O)(O)c2ccc([N+](=O)[O-])cc2)cc1`, inactive: -1.78%; under `O=C(OC1CN2CCC1CC2)c1cccc(Cl)c1` (stereo not given), inactive: -2.65%.
Turning to `COc1ccc(N)c([N+](=O)[O-])c1[N+](=O)[O-]`, the response is inactive: 0.16%.
Regarding `O=P(Nc1ccccn1)(c1ccc(Br)cc1)c1ccc(Br)cc1`, the response was active: 10.8%.
For `CN(C)C1(CNC(=O)c2ccc(Cl)c(S(N)(=O)=O)c2)CCCCC1`, the response is inactive: 0.19%.
On to `O=P(Nc1nc2ccccc2s1)(c1ccccc1)c1ccccc1`, for which the response was inactive: 3.3%.
For `C[C@H]1OP(=O)(Oc2ccccc2)[C@H](O)[C@H](O)[C@H]1N=[N+]=[N-]` (stereo not given in full), the response is inactive: -0.34%.
Under `CC(C)C(=O)NC(Sc1ccccc1)C(Cl)(Cl)Cl` (stereo not given) stands inactive: 2%; under `O=P(Nc1nccs1)(c1ccccc1)c1ccccc1`, inactive: 1.79%.
For the compound `c1nnnn1CCn1cnnn1`, the response was inactive: 2.21%.

These data come from PubChem BioAssay AID504577 (NMMLSC, 2011).
